The target of assay [1] is T1, recombinant human TMPRSS2 (Homo sapiens, UniProt O15393).
T1 construct: purchased LSBio LS-G57269
As to the kind of experiment: Recombinant TMPRSS2 activity assay (fluorogenic substrate). Conditions: recombinant enzyme, BOC-Gln-Ala-Arg-AMC substrate. It is filed as biochemical.

Amino acid sequences for entries named in this document (tags omitted). A change or cut given only in a name is not applied to a line headed by its entry. Chains listed by the source or under a name are the forms on record and can include a tag or linker. Residues count along the entry.
UniProt O15393, whole entry: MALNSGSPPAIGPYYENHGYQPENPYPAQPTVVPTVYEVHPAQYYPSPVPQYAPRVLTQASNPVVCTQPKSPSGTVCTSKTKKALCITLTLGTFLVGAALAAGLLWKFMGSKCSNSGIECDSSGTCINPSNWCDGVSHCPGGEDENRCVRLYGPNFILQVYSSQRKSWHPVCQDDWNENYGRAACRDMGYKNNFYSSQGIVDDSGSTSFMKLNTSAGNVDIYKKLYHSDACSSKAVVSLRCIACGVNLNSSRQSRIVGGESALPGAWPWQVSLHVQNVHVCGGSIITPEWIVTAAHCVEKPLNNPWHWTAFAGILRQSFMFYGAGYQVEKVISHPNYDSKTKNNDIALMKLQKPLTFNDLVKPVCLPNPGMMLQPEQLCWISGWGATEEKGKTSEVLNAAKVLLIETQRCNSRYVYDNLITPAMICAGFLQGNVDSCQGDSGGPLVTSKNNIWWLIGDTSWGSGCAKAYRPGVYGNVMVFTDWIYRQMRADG
UniProt O60235: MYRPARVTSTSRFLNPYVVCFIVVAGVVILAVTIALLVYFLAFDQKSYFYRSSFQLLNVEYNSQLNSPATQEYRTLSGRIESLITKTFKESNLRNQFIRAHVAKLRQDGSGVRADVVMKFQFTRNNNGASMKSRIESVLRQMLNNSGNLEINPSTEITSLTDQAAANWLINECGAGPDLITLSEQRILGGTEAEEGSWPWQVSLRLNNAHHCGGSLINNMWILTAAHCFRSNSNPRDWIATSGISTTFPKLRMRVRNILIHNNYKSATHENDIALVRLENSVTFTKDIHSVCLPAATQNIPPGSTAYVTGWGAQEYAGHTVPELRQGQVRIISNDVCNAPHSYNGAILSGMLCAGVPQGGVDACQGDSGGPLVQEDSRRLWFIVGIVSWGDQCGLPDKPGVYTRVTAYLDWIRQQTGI
UniProt P05981: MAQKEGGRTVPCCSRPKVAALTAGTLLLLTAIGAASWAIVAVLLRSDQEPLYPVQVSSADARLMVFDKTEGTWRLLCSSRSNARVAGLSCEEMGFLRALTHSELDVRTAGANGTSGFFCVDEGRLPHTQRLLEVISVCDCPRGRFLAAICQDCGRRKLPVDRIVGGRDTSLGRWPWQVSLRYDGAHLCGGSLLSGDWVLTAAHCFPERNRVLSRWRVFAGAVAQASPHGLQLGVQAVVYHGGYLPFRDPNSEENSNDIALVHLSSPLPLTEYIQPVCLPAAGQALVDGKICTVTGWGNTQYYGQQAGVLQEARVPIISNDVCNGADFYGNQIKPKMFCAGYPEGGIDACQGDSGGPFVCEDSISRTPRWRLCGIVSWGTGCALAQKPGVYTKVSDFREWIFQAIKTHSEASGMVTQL
UniProt Q9BYE2, other isoform, or with tags, fused parts or gaps: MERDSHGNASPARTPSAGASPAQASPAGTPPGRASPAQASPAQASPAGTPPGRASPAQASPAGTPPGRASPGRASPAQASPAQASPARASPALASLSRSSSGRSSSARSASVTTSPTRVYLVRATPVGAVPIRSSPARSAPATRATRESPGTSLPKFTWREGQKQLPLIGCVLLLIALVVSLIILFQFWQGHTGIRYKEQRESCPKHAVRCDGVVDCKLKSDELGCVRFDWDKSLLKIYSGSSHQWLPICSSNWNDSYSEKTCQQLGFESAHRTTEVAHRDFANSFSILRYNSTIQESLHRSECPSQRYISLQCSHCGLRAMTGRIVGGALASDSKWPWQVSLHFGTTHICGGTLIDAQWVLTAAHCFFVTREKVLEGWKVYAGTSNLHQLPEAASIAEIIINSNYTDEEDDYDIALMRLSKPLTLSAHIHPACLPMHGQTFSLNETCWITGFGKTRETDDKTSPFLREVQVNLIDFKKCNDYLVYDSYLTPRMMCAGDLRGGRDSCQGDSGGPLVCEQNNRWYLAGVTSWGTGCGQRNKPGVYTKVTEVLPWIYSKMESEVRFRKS
UniProt Q9Y5Y6: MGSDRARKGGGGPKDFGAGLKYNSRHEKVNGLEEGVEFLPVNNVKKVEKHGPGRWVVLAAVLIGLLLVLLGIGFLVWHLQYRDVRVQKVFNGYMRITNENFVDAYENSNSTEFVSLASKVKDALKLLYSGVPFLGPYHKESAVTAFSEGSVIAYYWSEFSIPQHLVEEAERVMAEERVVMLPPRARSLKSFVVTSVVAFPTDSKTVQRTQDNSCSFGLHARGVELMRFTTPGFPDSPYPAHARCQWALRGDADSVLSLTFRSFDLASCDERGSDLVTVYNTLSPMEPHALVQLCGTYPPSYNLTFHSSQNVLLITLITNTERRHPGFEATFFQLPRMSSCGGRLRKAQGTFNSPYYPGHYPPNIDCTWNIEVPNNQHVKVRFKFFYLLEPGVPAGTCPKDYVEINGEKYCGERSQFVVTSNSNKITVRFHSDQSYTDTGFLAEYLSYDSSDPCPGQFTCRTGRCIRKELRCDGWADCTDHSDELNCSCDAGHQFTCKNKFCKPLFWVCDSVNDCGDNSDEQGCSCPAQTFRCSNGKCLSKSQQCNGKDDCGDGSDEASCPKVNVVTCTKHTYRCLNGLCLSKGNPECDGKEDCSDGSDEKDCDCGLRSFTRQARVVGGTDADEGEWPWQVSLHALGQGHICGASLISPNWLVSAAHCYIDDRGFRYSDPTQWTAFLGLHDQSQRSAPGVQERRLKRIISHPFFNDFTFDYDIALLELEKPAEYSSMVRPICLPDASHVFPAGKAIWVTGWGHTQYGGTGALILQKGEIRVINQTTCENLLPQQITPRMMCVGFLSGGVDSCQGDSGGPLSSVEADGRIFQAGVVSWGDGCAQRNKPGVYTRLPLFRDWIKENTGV
UniProt Q9Y337, 23-293: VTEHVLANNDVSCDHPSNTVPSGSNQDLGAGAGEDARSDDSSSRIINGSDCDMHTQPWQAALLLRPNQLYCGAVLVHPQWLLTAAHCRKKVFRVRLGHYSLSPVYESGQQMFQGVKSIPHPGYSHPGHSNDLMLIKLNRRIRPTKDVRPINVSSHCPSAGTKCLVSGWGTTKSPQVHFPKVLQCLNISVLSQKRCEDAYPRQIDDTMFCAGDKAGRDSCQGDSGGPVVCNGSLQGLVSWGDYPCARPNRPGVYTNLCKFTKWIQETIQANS

The target in another assay is T2, TMPRSS11D (Homo sapiens, UniProt O60235).
T2 construct: encoding the respective transmembrane serine protease per well; host or cells: HEK293T
As to the kind of experiment: Cellular TMPRSS11D activity assay in transfected HEK293T cells. It counts as cell-based. The method, then:
(§1) Twenty thousand HEK293T cells were seeded in a 96‐well flat bottom plate. The next day, cells were transfected with 100 ng of an expression plasmid (Backbone: Twist Bioscience, EF1alpha mammalian expression vector) encoding the respective transmembrane serine protease per well using LT1 transfection reagent (TMPRSS2 human NCBI RefSeq: NP_005647.3; TMPRSS2 Syrian gold hamster NCBI RefSeq: XP_012971683.1; TMPRSS11D NCBI RefSeq: NP_004253.1; TMPRSS13 NCBI RefSeq: NP_001070731.1). In short, plasmid DNA was mixed in a 1:3 ratio with LT1 in a serum‐free medium and incubated for 20 min before the mixture was applied dropwise onto the cells. Sixteen hours post‐transfection, the medium was replaced by a serum‐free medium, and cells were treated with serial dilution of compounds in PBS. After 15 min of incubation at 37 °C, 100 µM of respective protease‐specific substrate (TMPRSS2: Boc‐QAR‐AMC, Bachem # 4017019; TMPRSS11D: Boc‐FSR‐AMC, Bachem # 4012340; TMPRSS13: Pyr‐RTKR‐AMC, Bachem #4018149) was added and incubated for 2 h at 37 °C. Fluorescence intensity was recorded at an excitation wavelength of 380 nm and emission wavelength of 460 nm in a Synergy H1 microplate reader (BioTek) with Gen 5 3.04 software. Values were background corrected for non‐transfected HEK293T‐cells.

The target in the next assay is T3, TMPRSS1 (Hepsin) (Homo sapiens, UniProt P05981).
T3 construct: purchased R&D 11416
Briefly: Recombinant TMPRSS1 activity assay. It counts as biochemical. The settings on record: recombinant enzyme.

The target of a further assay is T4, TMPRSS13 (Homo sapiens, UniProt Q9BYE2).
T4 construct: encoding the respective transmembrane serine protease per well; host or cells: HEK293T
Briefly: Cellular TMPRSS13 activity assay in transfected HEK293T cells. It counts as cell-based. The method, then:
as §1

A further assay addresses T5, TMPRSS14 (Matriptase) (Homo sapiens, UniProt Q9Y5Y6).
T5 construct: purchased 3946
As to the kind of experiment: Recombinant TMPRSS14 activity assay. It counts as biochemical. Conditions: recombinant enzyme. The method, then: In the next step, 50 µL of 20 µM BOC‐Gln‐Ala‐Arg‐AMC protease substrate (Bachem #4017019) in the case of TMPRSS2 and TMPRSS14 or 50 µL of 150 µM BOC‐Gln‐Arg‐Arg‐AMC (PeptaNova) in the case of TMPRSS1 was added and incubated for 2 h for TMPRSS2, or 5 mins in the case of TMPRSS1/14 at 37 °C. Fluorescence intensity was measured after 2 h at an excitation wavelength of 380 nm and emission wavelength of 460 nm in a SynergyTM H1 microplate reader (BioTek) with Gen5 3.04 software. […] Assays were performed in a total volume of 100 µL in quadruplicate wells of a 96 Nunc well plate (Thermo Scientific #10174221) with a final TMPRSS2 concentration of 20 nM. Initial velocities were measured in 50 s intervals for 15 min with excitation of 360 nm and emission of 460 nm in a SynergyTM H1 microplate reader. K m and V max were calculated from Michaelis–Menten plots using GraphPadPrism. The inhibitory constant K i was calculated from the IC50 values according to the Cheng–Prusoff equation (K i = IC50/(1 + [S]/K m)) for competitive reversible inhibitors.^[ [91] ^]

For a further assay, the target named is T6, Kallikrein 5 (Homo sapiens, UniProt Q9Y337).
T6 construct: purchased R&D 1108
As to the kind of experiment: Recombinant kallikrein 5 activity assay. It is filed as biochemical. Conditions: recombinant enzyme. The method, then: Kallikrein 5 activity was measured by mixing 25 µL of compound with 25 µL of 2 µg mL^−1 of recombinant enzyme (R&D #1108) in assay buffer (100 mM NaH2PO4, pH 8) for 15 min at 37 °C before the addition of 50 µL of BOC‐Val‐Pro‐Arg‐AMC substrate (R&D #ES011). The mixture was incubated for 5 min at 37 °C before fluorescence intensity was measured at an excitation wavelength of 380 nm and emission wavelength of 460 nm in a SynergyTM H1 microplate reader (BioTek) with Gen5 3.04 software.

These results are taken from paper PMC12224939, “Trypstatin as a Novel TMPRSS2 Inhibitor with Broad‐Spectrum Efficacy against Corona and Influenza Viruses” (Advanced Science, 2025).

As usually defined, the IC50 is the concentration that inhibits the measured activity by half. In the case of Aprotinin, the IC50 in assay [1] came out at 50 nM; on TMPRSS11D, 157 nM; on TMPRSS1 (Hepsin), 21 nM; at TMPRSS13 it was 81 nM; at TMPRSS14 (Matriptase), 22 nM; on Kallikrein 5, 541 nM.
